Test results from patent US20080070237A1, “Npas3 Mutant Mice and Uses for Screening and Testing Therapies for Schizophrenia and Related Neurological Disorders” (priority 2003, published 2008).

Experiments:
Npas3+/+ control mice = conditions: mouse, in vivo
Protocol: (§1) Locomotor Activity Tests. For all locomotor experiments, activity is measured in a 41×41×30 cm Omnitech Digiscan activity monitor equipped with 16 pairs of photodetector-LED beams along the x and y axis. (Accuscan Electronics, Columbus, Ohio). […] After the acclimation period, Baseline Locomoter Activity Test results are recorded for each test mouse. Subsequently, locomotor activity is tested following pharmacological challenges of three neurotransmitter pathways involved in schizophrenia and other neurological disorders. The pathways and the drugs used to challenge each include:
(§2) a. Methamphetamine (a dopamine pathway agonist) 1.0 mg/kg in the form of D-methamphetamine-HCL (Sigma; St. Louis, Mo.). Methamphetamine is a strong dopamine agonist that will activate D1 and D2 receptor signaling.
(§3) b. Haloperidol (a dopamine pathway antagonist) 0.3 mg/kg or 1.0 mg/kg (Tocris; Ellisville, Mo.).
(§4) The test drug is 0.3 mg/kg clozapine (Sigma; St. Louis, Mo.). An atypical neuroleptic agent, clozapine, which has a high affinity for serotonin 5-HT2 and 5-HT6 receptors, is administered to determine the involvement of serotonergic pathways. Although clozapine can also antagonize both D1 and D2-like receptors, ten times higher concentrations are necessary to inhibit dopamine-dependent hyperactivity
(§5) The test drugs are 1.0 mg/kg MK-801 or 0.3 mg/kg MK-801 (ICN Biomedicals Inc.; Aurora, Ohio). MK-801 is a noncompetitive NMDA receptor antagonist.
(§6) Each drug is administered in a subcutaneous injection volume of 5 mL/kg body weight. Post-challenge activity is measured for three hours. Horizontal activity counts (scored by visual observance or breaking a light beam) and total distance are recorded during the pre- and post-challenge periods at 3-minute intervals with VersaMax software. All Locomoter Activity Tests are performed on mice at 7-9 weeks of age, with n=12. All values are expressed as mean±SEM. Statistical analyses are performed using appropriate analysis of variance (ANOVA) followed by adapted post hoc comparisons.

Npas3−/− mice = conditions: mouse, in vivo
Protocol: as §1, §2, §3, §4, §5, §6

## CCCN1CCC[C@@H]2Cc3n[nH]cc3C[C@H]21 [quinpirole, Quinpirole]
Npas3+/+ control mice
  horizontal locomotor activity after drug challenge: inhibits the locomotor activity
Npas3−/− mice
  horizontal locomotor activity after drug challenge: inhibition is only transient
Npas3−/− mice; sc, 1 mg/kg
  time until mice resume locomotor activity after initial inhibition: ≤ 15 min
